Measured values as given in patent US10842969B2, “Systems and methods of treating malacia by local delivery of hydrogel to augment tissue” (priority 2013, dated 2020).

Test: in vivo
Conditions: pig, bronchial tissue, other: local injection to the bronchial adventitia, average paclitaxel concentration in bronchial tissue, low dose group, first two distal and first two proximal segments (4 cm around injection site)

Structure (SMILES): CC(=O)O[C@H]1C(=O)[C@@]2(C)[C@H]([C@H](OC(=O)c3ccccc3)[C@]3(O)C[C@H](OC(=O)[C@H](O)[C@@H](NC(=O)c4ccccc4)c4ccccc4)C(C)=C1C3(C)C)[C@]1(OC(C)=O)CO[C@@H]1C[C@@H]2O [paclitaxel]
- concentration at 7 days (0.05 mg/site): 35 ± 15 nM
- concentration at 7 days (0.65 mg total paclitaxel): 35 ± 15 nM
